Assay: Mouse pharmacokinetic (PK) evaluation of drug metabolism to psilocin
Assay type: in vivo, C57Bl/6 mice

CN(C)CCc1c[nH]c2cccc(OC(=O)OCc3ccccc3)c12 [B(II)]
detection of the derivative in plasma (mice, oral 1 mg/kg): neither B(II) nor E(VI) were detected in plasma
psilocin levels in treated mice, B(II) compared with E(VI) (oral dosing, Tables 2 and 3): higher psilocin levels
